Read-outs that look alike come from different tables or passages of the source.
Target: T1, IL-23R (Homo sapiens, UniProt Q5VWK5)
T1 construct: host or cells: HEK293
T1 sequence (Q5VWK5 24-629): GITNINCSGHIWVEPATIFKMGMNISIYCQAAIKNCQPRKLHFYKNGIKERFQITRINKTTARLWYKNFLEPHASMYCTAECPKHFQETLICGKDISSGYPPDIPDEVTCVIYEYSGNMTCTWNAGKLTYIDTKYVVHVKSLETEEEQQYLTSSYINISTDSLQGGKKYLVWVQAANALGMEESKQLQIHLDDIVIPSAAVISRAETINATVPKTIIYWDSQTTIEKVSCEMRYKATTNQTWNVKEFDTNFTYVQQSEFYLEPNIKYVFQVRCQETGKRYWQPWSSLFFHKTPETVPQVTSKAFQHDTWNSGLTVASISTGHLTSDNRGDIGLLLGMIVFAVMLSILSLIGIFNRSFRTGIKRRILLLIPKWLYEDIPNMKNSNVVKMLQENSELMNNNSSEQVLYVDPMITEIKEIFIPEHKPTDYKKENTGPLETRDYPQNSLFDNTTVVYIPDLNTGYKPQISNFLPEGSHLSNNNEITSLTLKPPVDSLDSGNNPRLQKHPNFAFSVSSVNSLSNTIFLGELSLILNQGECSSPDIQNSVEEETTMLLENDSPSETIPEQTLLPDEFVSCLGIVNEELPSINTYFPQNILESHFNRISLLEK
Assay: IL-23R reporter assay (HEK293, STAT-inducible luciferase)
Format: cell-based
Conditions: IL-12Rβ1 and STAT-inducible luciferase reporter
Description: Example 4. IL-23R Reporter Assay
Compounds were serially diluted in 100% (v/v) DMSO) and plated using an Echo acoustic dispenser (Labcyte) into 1536-well non-treated black assay plates (Corning #9146). 3 μL of HEK293 cells containing IL-23R, IL-12Rβ1 and a firefly luciferase reporter gene driven by a STAT-inducible promoter (Promega) were added to the plates (4000 cells/well), followed by 3 μL of 20 ng/mL IL-23 (equivalent to EC90 concentration). After 5 h at 37° C., 5% CO2, 95% relative humidity, cells were placed at 20° C. and treated with BioGlo reagent (Promega) according to the manufacturer's instructions. Luminescence was measured on a Pherastar FSX (BMG LabTech). Data were normalized to IL-23 treatment (0% inhibition) and 30 μM of control inhibitor (100% inhibition), and IC50 values were determined using a 4-parameter Hill equation. Where multiple measurements have been made the average is shown with the number of replicates indicated in parenthesis following the IC50 values.

[1] = Table 4, HEK293 cells with IL-23R, stimulated with IL-23
[2] = HEK293 cells containing IL-23R, 20 ng/mL IL-23 (EC90), 5 h

Row | Compound | IC50 [1] | further results
1 | 5Ava(2)-Abu(1)-N-T-W-K(PEG2PEG2gEC18OH)-C(1)-AEF-2Nal-THP-E(2)-N-3Pya-Sar-CONH2 [Example 249] | > 16600 nM | –
2 | 5Ava(2)-Abu(1)-N-T-W-Q-C(1)-AEF-2Nal-THP-E(2)-N-3MeH-Sar-CONH2 [Example 253] | 270 nM | –
3 | 5cpaCO-Pen(3)-E(2)-T-7MeW-K(Ac)-Pen(3)-AEF(2)-2Nal-THP-E-N-3Pya-Sar-CONH2 [Example 229] | 290 nM | –
4 | 5cpaCO-k(2)-Pen(3)-N-T-7MeW-K(Ac)-Pen(3)-AEF-2Nal-THP-hE(2)-N-3Pya-Sar-CONH2 [Example 230] | 2320 nM | –
5 | 6Ahx(2)-Abu(1)-N-T-W-Q-C(1)-AEF-2Nal-THP-E(2)-N-3Pya-NMeK(PEG2PEG2gEC18OH)-CONH2 [Example 252] | 2.8 nM | –
6 | CC(=O)N(C)CCCC[C@@H]1NC(=O)[C@H](Cc2c[nH]c3c(C)cccc23)NC(=O)[C@H]([C@@H](C)O)NC(=O)[C@H](CC(=O)N(C)C)NC(=O)[C@H]2NC(=O)[C@H](NC(=O)CCOCCOCC[N+](C)(C)C)CCCCNC(=O)CCC[C@@H](C(=O)N[C@@H](CC(N)=O)C(=O)N[C@@H](Cc3cccnc3)C(=O)N(C)CC(=O)N(C)C)NC(=O)C3(CCOCC3)NC(=O)[C@H](Cc3ccc4ccccc4c3)NC(=O)[C@H](Cc3ccc(OCCCCC[N+](C)(C)C)cc3)NC(=O)[C@@H](NC1=O)C(C)(C)SSC2(C)C [Compd 319] | – | IC50 (Table 4, HEK293 cells with IL-23R, stimulated with IL-23, read-out: IC50): 2.8 nM
7 | AEEP(2)-Pen(3)-K(PEG2PEG2gEC18OH)-T-7MeW-K(Ac)-Pen(3)-AEF-2Nal-THP-E(2)-N-3Pya-Sar-CONH2 [Example 262] | 2.9 nM | –
8 | AEEP(2)-Pen(3)-N-T-7MeW-K(Ac)-Pen(3)-AEF-2Nal-THP-E(2)-N-3Pya-Sar-CONH2 [Example 247] | 3560 nM | –
9 | AEEP(2)-Pen(3)-N-T-7MeW-K(Ac)-Pen(3)-AEF-2Nal-THP-E(2)-N-3Pya-Sar-K(PEG2PEG2gEC18OH)-CONH2 [Example 254] | 290 nM | –
10 | AEEP(2)-Pen(3)-N-T-7MeW-K(PEG2PEG2gEC18OH)-Pen(3)-AEF-2Nal-THP-E(2)-N-3Pya-Sar-CONH2 [Example 261] | 200 nM | –
11 | CF3CO-Pen(3)-E(2)-T-7MeW-K(Me)3-Pen(3)-AEF(NMe)(2)-2Nal-THP-K(Me)3-N-3Pya-Sar-CON(Me)2 [Example 225] | > 16600 nM | –
12 | CF3CO-Pen(3)-E(2)-T-7MeW-Q(N(Me)2)-Pen(3)-AEF(2)-2Nal-THP-Q(N(Me)2)-N-3Pya-Sar-CON(Me)2 [Example 222] | > 16600 nM | –
13 | CF3CO-Pen(3)-E(2)-T-7MeW-Q(N(Me)2)-Pen(3)-AEF(NMe)(2)-2Nal-THP-Q(N(Me)2)-N-3Pya-Sar-CON(Me)2 [Example 219] | > 16600 nM | –
14 | GABA(2)-k(PEG2PEG2gEC18OH)-Pen(3)-N-T-7MeW-K(Ac)-Pen(3)-AEF-2Nal-THP-E(2)-N-3Pya-Sar-CONH2 [Example 248] | > 16600 nM | –
15 | GABA(2)-r-Pen(3)-Q-T-W-Q-Pen(3)-AEF-2Nal-THP-E(2)-N-THP-CONH2 [Example 266] | 1.5 nM | –
16 | MeCO-E(2)-Pen(3)-N-T-7MeW-K(Ac)-Pen(3)-AEF-2Nal-THP-K(Ac)-N-3Pya-dK(2)-CONH2 [Example 233] | > 16600 nM | –
17 | MeCO-GLU(2)-Pen(3)-N-T-7MeW-K(Ac)-Pen(3)-AEF(2)-2Nal-THP-K(Ac)-N-3Pya-Sar-CONH2 [Example 228] | > 16600 nM | –
18 | MeCO-Pen(3)-E(2)-T-7MeW-K(Ac)-Pen(3)-AEF(2)-2Nal-THP-E-N-3Pya-Sar-CONH2 [Example 268] | 9.6 nM | –
19 | MeCO-Pen(3)-E(2)-T-7MeW-K(Ac)-Pen(3)-AEF(NMe)(2)-2Nal-THP-K(Ac)-N-3Pya-Sar-CONH2 [Example 218] | > 16600 nM | –
20 | MeCO-Pen(3)-E(2)-T-7MeW-K(Me)3-Pen(3)-AEF(NMe)(2)-2Nal-THP-K(Me)3-N-3Pya-Sar-CON(Me)2 [Example 240] | 7720 nM | –
21 | MeCO-Pen(3)-E(2)-T-7MeW-K(NMeAc)-Pen(3)-AEF(2)-2Nal-THP-K(NMeAc)-N-3Pya-Sar-CONH2 [Example 217] | – | IC50 [2]: 31 nM
22 | MeCO-Pen(3)-E(2)-T-7MeW-K(NMeAc)-Pen(3)-AEF(2)-2Nal-THP-K(NMeAc)-N-3Pya-Sar-CONHMe [Example 216] | – | IC50 [2]: 250 nM

Row | Compound | IC50 [1] | further results
23 | MeCO-Pen(3)-E(2)-T-7MeW-K(mPEG12)-Pen(3)-AEF(2)-2Nal-THP-K(Ac)-L-3Pya-Sar-CONH2 [Example 244] | 2.6 nM | –
24 | MeCO-Pen(3)-E(2)-T-7MeW-Q(N(Me)2)-Pen(3)-AEF(NMe)(2)-2Nal-THP-Q(N(Me)2)-N-3Pya-Sar-CON(Me)2 [Example 220] | > 16600 nM | –
25 | MeCO-Pen(3)-E(2)-T-7MeW-hK(Me)3-Pen(3)-AEF(NMe)(2)-2Nal-THP-E-N-3Pya-Sar-CON(Me)2 [Example 235] | > 16600 nM | –
26 | MeCO-Pen(3)-E(2)-T-W-K(Ac)-Pen(3)-AEF-2Nal-THP-K(Ac)-S-3Pya-Sar-CONH2 [Example 232] | > 16600 nM | –
27 | MeCO-Pen(3)-N-3OHPro-7MeW-S5H(4)-Pen(3)-AEF-2Nal-S5H(4)-K(Ac)-N-3Pya-CONH2 [Example 201] | 3.4 nM | –
28 | MeCO-Pen(3)-N-T-7MeW-K(Ac)-Pen(3)-4AmF-2Nal-THP-E(2)-N-3Pya-dK(2)-CONH2 [Example 234] | 250 nM | –
29 | MeCO-Pen(3)-N-T-7MeW-S5H(4)-Pen(3)-AEF-2Nal-S5H(4)-K(Ac)-N-3Pya-Sar-CONH2 [Example 205] | – | IC50 [2]: 7.6 nM
30 | MeCO-R5H(4)-Pen(3)-N-T-7MeW-K(Ac)-Pen(3)-AEF-2Nal-aMeK-S5H(4)-N-3Pya-Sar-CONH2 [Example 203] | – | IC50 [2]: 8.8 nM
31 | MeCO-R5H(4)-Pen(3)-N-T-7MeW-K(Ac)-Pen(3)-AEF-2Nal-aMeK-S5H(4)-N-3Pya-Sar-CONH2 [Example 204] | – | IC50 [2]: 15 nM
32 | MeCO-R5H(4)-Pen(3)-Q-T-W-Q-Pen(3)-AEF-2Nal-THP-S5H(4)-N-3Pya-Sar-CONH2 [Example 215] | – | IC50 [2]: 19 nM
33 | MeCO-R7H(4)-Pen(3)-N-T-7MeW-K(Ac)-Pen(3)-AEF-2Nal-THP-S5H(4)-N-3Pya-Sar-CONH2 [Example 209] | 3.7 nM | IC50 [2]: 2.7 nM
34 | MeCO-dab(2)-Abu(1)-Q-T-W-Q-C(1)-AEF-2Nal-THP-E(2)-N-bAla-CONH2 [Example 269] | 120 nM | –
35 | MeCO-lys(2)-Pen(3)-Q-T-W-Q-Pen(3)-AEF-2Nal-THP-E(2)-N-3Pya-Sar-CONH2 [Example 214] | – | IC50 [2]: 120 nM
36 | PEG2(2)-Pen(3)-N-T-7MeW-K(Ac)-Pen(3)-AEF-2Nal-THP-hE(2)-N-3Pya-Sar-CONH2 [Example 227] | 3520 nM | –
37 | PEG2(2)-Pen(3)-N-T-7MeW-K(NMeAc)-Pen(3)-AEF-2Nal-THP-hE(2)-N-3Pya-Sar-CONH2 [Example 243] | 2.1 nM | –
38 | cPEG3aCO-DLys(2)-Pen(3)-N-T-7MeW-K(NMeAc)-Pen(3)-AEF-2Nal-THP-hE(2)-N-3Pya-Sar-CONH2 [Example 242] | > 16600 nM | –
39 | cPEG3aCO-Pen(3)-E(2)-T-7MeW-K(Ac)-Pen(3)-AEF(2)-2Nal-THP-K(Ac)-N-3Pya-Sar-CONH2 [Example 231] | 170 nM | –
40 | cPEG3aCO-Pen(3)-E(2)-T-7MeW-K(Me)3-Pen(3)-AEF(NMe)(2)-2Nal-THP-K(Me)3-N-3Pya-Sar-CON(Me)2 [Example 239] | > 16600 nM | –
41 | cPEG3aCO-Pen(3)-E(2)-T-7MeW-K(NMeAc)-Pen(3)-AEF(2)-2Nal-THP-K(Ac)-N-3Pya-Sar-CONH2 [Example 238] | > 16600 nM | –
42 | cPEG3aCO-Pen(3)-E(2)-T-7MeW-K(NMeAc)-Pen(3)-AEF(NMe)(2)-2Nal-THP-E-N-3Pya-Sar-CON(Me)2 [Example 236] | > 16600 nM | –
43 | cPEG3aCO-Pen(3)-E(2)-T-7MeW-K(NMeAc)-Pen(3)-AEF(NMe)(2)-2Nal-THP-K(NMeAc)-N-3Pya-Sar-CON(Me)2 [Example 237] | 290 nM | –
44 | cPEG3aCO-k(2)-Pen(3)-N-T-7MeW-K(Ac)-Pen(3)-AEF-2Nal-THP-hE(2)-N-3Pya-Sar-CONH2 [Example 241] | > 16600 nM | –

Reference: patent publication US20240352073A1, “BICYCLIC PEPTIDE INHIBITORS OF INTERLEUKIN-23 RECEPTOR” (Janssen Biotech, Inc., priority 2021, published 2024)
